Laboratory results published in ChEMBL document CHEMBL4325923, “Analogues of the Lignan Pinoresinol as Novel Lead Compounds for P-glycoprotein (P-gp) Inhibitors” (ACS Med Chem Lett, 2018).

Sequences of proteins named here, by UniProt entry; tags and fusion partners are left off.
UniProt P08183, whole entry: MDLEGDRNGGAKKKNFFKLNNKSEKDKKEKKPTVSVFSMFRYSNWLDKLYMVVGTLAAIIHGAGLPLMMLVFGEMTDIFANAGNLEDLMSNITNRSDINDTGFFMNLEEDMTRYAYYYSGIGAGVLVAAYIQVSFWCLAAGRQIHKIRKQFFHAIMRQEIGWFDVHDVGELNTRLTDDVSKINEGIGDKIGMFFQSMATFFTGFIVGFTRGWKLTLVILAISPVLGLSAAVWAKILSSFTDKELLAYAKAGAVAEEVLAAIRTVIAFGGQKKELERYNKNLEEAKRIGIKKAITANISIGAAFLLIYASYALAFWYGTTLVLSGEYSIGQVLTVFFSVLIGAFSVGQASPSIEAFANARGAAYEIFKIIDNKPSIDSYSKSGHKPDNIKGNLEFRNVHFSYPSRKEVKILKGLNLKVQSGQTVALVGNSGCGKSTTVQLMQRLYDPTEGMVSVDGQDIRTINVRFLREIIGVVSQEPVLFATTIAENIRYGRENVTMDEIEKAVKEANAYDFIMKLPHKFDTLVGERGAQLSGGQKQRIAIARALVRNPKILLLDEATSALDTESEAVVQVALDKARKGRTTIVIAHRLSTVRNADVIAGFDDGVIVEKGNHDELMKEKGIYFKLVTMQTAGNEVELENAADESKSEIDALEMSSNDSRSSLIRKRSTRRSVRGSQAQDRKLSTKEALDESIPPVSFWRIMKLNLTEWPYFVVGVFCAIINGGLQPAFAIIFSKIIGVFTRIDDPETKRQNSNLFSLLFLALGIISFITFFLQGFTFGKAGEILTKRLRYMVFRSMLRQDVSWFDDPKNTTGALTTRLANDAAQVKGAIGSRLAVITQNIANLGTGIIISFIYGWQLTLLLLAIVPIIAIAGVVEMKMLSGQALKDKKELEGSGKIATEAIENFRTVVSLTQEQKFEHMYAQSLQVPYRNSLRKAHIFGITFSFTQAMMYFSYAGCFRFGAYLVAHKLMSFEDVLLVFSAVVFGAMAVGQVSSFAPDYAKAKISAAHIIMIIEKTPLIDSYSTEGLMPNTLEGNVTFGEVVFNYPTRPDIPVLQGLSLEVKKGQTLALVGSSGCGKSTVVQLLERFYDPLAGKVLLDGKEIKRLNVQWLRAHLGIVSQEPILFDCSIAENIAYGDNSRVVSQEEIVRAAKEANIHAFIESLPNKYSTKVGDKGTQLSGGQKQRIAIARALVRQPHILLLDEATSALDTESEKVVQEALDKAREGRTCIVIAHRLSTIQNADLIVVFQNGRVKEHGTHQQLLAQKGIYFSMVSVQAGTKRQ

Target: ATP-dependent translocase ABCB1 (Homo sapiens, UniProt P08183)
Assay: Inhibition of P-gp-mediated doxorubicin efflux in human Lucena 1 cells assessed as ratio of doxorubicin fluorescence intensity in presence of compound to doxorubicin fluorescence intensity in absence of compound at 6.25 uM preincubated for 1 hr followed by doxorubicin addition measured after 1 hr by flow cytometry
Assay type: cell-based

CC/C(=C(\c1ccccc1)c1ccc(OCCN(C)C)cc1)c1ccccc1 [TAMOXIFEN]
Ratio: 1.05
